Assay: Skin permeation experiment (excised rat skin on Franz diffusion cell, HPLC)

**Q.** Which “accumulated permeation amount within 24 hours” value (Control 1: bovine insulin mixed into the copolymer base material (not laminated), same method as Example 1) does the source give for bovine insulin here?
**A.** 0.01 μg/cm^2

**Q.** And the “accumulated permeation amount within 24 hours” value (Example 1: patch with 100 μg bovine insulin layer laminated on acrylate copolymer base material, stratum corneum pretreated with 0.01 weight % trypsin, 1 hour, 37° C.)?
**A.** 3.2 μg/cm^2

**Q.** What about the “accumulated permeation amount within 24 hours” value (Example 2: same insulin patch as Example 1, no pretreatment of stratum corneum) of the same substance?
**A.** 1.7 μg/cm^2

From patent publication US20100113348A1, “PERCUTANEOUSLY ABSORBABLE PREPARATION, PROCESS FOR PRODUCTION THEREOF AND METHOD FOR PERCUTANEOUS ABSORPTION” (priority 2007, published 2010)
